The record followed here is US7423181B2, “Aminoalkoxy-functional chalcones” (Lica Pharmaceuticals A/S, priority 2002, dated 2008).

In brackets after ≈: the same amount, converted by molar mass.

In this assay the test system is Staphylococcus intermedius #2357(clinical isolate from the Copenhagen area). In words: MIC determination in broth microdilution assay. A general note: In broth dilution the organism is exposed to a series of concentrations in liquid medium.
Where [1] appears, read: C: Staphylococcus intermedius #2357.

For `Cc1cc(C)cc(-c2ccc(OCCN(C)C)c(CCC(=O)c3ccc(F)cc3)c2)c1` [Compound C072, 3-[4-(2-Dimethylamino-ethoxy)-3′,5′-dimethyl-biphenyl-3-yl]-1-(4-fluoro-phenyl)-propan-1-one], the MIC (in general, the least concentration at which growth counts as inhibited) (Staphylococcus intermedius) turned out to be 9.4 µM (≈ 3.94 µg/mL). Regarding `COc1ccc(C(=O)/C=C/c2cc(C(C)(C)C)ccc2OCCN(C)C)c(F)c1` [Compound C004, (E)-3-[5-tert-Butyl-2-(2-dimethylamino-ethoxy)-phenyl]-1-(2-fluoro-4-methoxy-phenyl)-propenone], the minimal inhibitory concentration (MIC) under setting [1] turned out to be 18.8 µM (≈ 7.51 µg/mL). Under setting [1], `Cc1cc(C)cc(-c2ccc(OCCN(C)C)c(/C=C/C(=O)c3ccccc3NCCN(C)C)c2)c1` [Compound C074, (E)-3-[4-(2-Dimethylamino-ethoxy)-3′,5′-dimethyl-biphenyl-3-yl]-1-[2-(2-dimethylamino-ethylamino)-phenyl]-propenone] had a minimum inhibitory concentration (MIC) of 9.4 µM (≈ 4.57 µg/mL). `Cc1cc(C)cc(-c2ccc(OCCN(C)C)c(/C=C/C(=O)c3cccc(N4CCN(C)CC4)c3)c2)c1` [Compound C103, (E)-3-[4-(2-Dimethylamino-ethoxy)-3′,5′-dimethyl-biphenyl-3-yl]-1-[3-(4-methyl-piperazin-1-yl)-phenyl]-propenone] showed a minimum inhibitory concentration (MIC) under setting [1] of 9.4 µM (≈ 4.68 µg/mL).

In turn, `Cc1cc(C)cc(-c2ccc(OCCN(C)C)c(/C=C/C(=O)c3cccc(O)c3)c2)c1` [Compound C085, (E)-3-[4-(2-Dimethylamino-ethoxy)-3′,5′-dimethyl-biphenyl-3-yl]-1-(3-hydroxy-phenyl)-propenone] showed an MIC under setting [1] of 4.7 µM (≈ 1.95 µg/mL). On the same count and under the same terms, the result for `CCCc1cc(/C=C/C(=O)c2ccc(OC)cc2F)c(OCCN(C)C)cc1O` [Compound C039, (E)-3-[2-(2-Dimethylamino-ethoxy)-4-hydroxy-5-propyl-phenyl]-1-(2-fluoro-4-methoxy-phenyl)-propenone] reads 18.8 µM (≈ 7.55 µg/mL); that for `Cc1cc(C)cc(-c2ccc(OCCN(C)C)c(/C=C/C(=O)c3ccc(OCCN(C)C)cc3F)c2)c1` [Compound C157, (E)-3-[4-(2-Dimethylamino-ethoxy)-3′,5′-dimethyl-biphenyl-3-yl]-1-[4-(2-dimethylamino-ethoxy)-2-fluoro-phenyl]-propenone], 9.4 µM (≈ 4.74 µg/mL); that for `Cc1cc(C)cc(-c2ccc(OCCN(C)C)c(/C=C/C(=O)c3ccccc3N)c2)c1` [Compound C093, (E)-1-(2-Amino-phenyl)-3-[4-(2-dimethylamino-ethoxy)-3′,5′-dimethyl-biphenyl-3-yl]-propenone], 4.7 µM (≈ 1.95 µg/mL). As for `COc1ccc(C(=O)/C=C/c2cc(-c3cc(C)cc(C)c3)ccc2OCCN(C)C)cc1` [Compound C023, (E)-3-[4-(2′-Dimethylamino-ethoxy)-3′,5′-dimethyl-biphenyl-3-yl]-1-(4-methoxy-phenyl)-propenone], the MIC under setting [1] worked out at 4.7 µM (≈ 2.02 µg/mL). Still for that read-out and setting: the result for `COc1ccc(C(=O)/C=C/c2cc(-c3cc(C)cc(C)c3)ccc2OCCN(C)C)c(CN(C)C)c1` [Compound C092, (E)-3-[4-(2-Dimethylamino-ethoxy)-3′,5′-dimethyl-biphenyl-3-yl]-1-(2-dimethylaminomethyl-4-methoxy-phenyl)-propenone] reads 18.8 µM (≈ 9.15 µg/mL); that for `Cc1cc(C)cc(-c2ccc(OCCN(C)C)c(/C=C/C(=O)c3cccc(NCCN(C)C)c3)c2)c1` [Compound C075, (E)-3-[4-(2-Dimethylamino-ethoxy)-3′,5′-dimethyl-biphenyl-3-yl]-1-[3-(2-dimethylamino-ethylamino)-phenyl]-propenone], 9.4 µM (≈ 4.57 µg/mL); that for `Cc1cc(C)cc(-c2ccc(OCCN(C)C)c(/C=C/C(=O)c3ccccc3OCCCN(C)C)c2)c1` [Compound C104, (E)-3-[4-(2-Dimethylamino-ethoxy)-3′,5′-dimethyl-biphenyl-3-yl]-1-[2-(3-dimethylamino-propoxy)-phenyl]-propenone], 18.8 µM (≈ 9.41 µg/mL). Same read-out and setting: as for `Cc1cc(C)cc(-c2ccc(OCCN(C)C)c(/C=C/C(=O)c3ccccc3OC(C)C)c2)c1` [Compound C067, (E)-3-[4-(2-Dimethylamino-ethoxy)-3′,5′-dimethyl-biphenyl-3-yl]-1(2-isopropoxy-phenyl)-propenone], the figure is 4.7 µM (≈ 2.15 µg/mL).
